# Ab-14 light chain CDR variants: yeast mating affinities

From the AlphaSeq antibody data of Li et al. 2023 (doi:10.1038/s41467-023-39022-2), copy in the FLAb collection.

All variants were tested on one target, the spike HR2 peptide PDVDLGDISGINAS (SARS-CoV-2).

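The starting antibody came from a phage panning campaign against this peptide. These sequences belong to a second round, designed from the earlier measurements on random variants of the parent. Their group label is 14L_En_HC (En: ensemble of fine-tuned language models; HC: hill climbing; a sequence that several methods proposed may carry one label only). Affinity was read by AlphaSeq, a pooled yeast mating assay with surface-displayed partners. The frequency of each diploid, read from paired DNA barcodes, reflects how well the two displayed proteins bind. The ratio of observed to expected reads was calibrated, replicate by replicate, on BCL2-family standards whose Kd was known from biolayer interferometry. Each pool was mated in six replicate cultures.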

Each scFv is VH, the linker GGGGSGGGGSGGGGS, VL, as in the parent Ab-14, and differs from it in the CDRs of the light chain only.
VH: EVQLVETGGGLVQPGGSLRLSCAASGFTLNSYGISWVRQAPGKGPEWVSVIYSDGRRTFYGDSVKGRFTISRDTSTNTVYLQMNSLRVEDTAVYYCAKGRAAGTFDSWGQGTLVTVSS
VL: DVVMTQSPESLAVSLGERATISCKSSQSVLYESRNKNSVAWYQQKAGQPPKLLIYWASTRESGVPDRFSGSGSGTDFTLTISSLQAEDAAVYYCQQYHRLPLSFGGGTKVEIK

Each variant is given by its three light chain CDRs, as the data file delimits them; those of the parent are KSSQSVLYESRNKNSVA, WASTRES, QQYHRLPLS.
The read-out is the apparent dissociation constant on a log10 scale (nM): the lower, the stronger.
A pair that was not seen in that replicate is written "n.d."; this usually means weak binding, but a binder can also be missed.
The parent sequence was in this pool as ten entries: three were never detected, three once, and four in most replicates, with averages from 0.34 to 2.37.

| CDR-L1 | CDR-L2 | CDR-L3 | log10 Kd, replicates | signal with controls |
|---|---|---|---|---|
| KLGQSVGYEQRNKSRVA | DNSTRES | QQYDRLPLS | 1.21 2.55 0.56 1.55 1.46 1.94 | 0 of 18 |
| IISGSMLMESRNKSSVA | NAETREY | QHYDRLPLS | n.d. 5.38 n.d. 2.92 3.11 n.d. | 2 of 18 (2.78) |
| TISQMWFVESKNRNNVA | EMTTREN | QDYDRLPLS | 0.63 0.28 0.54 0.66 0.44 0.68 | 1 of 18 (1.83) |
| QLYAVQDLTSKNSNNVA | EQSTREN | QQYHRLPLS | 1.12 0.91 0.96 0.90 0.99 1.24 | 1 of 18 (1.82) |
| IISQSVMFEQTLINSVA | NAQTREQ | QQYHRLPLS | 0.47 0.17 0.42 -0.02 0.12 0.46 | 1 of 18 (2.89) |
| MISDLTMYGSRNGNSVA | DLSTRGS | QQYHRLPLS | 0.41 0.46 0.54 0.53 0.02 0.26 | 1 of 18 (3.58) |
| TISQLMWYESRNKNNVA | GTSTRES | QCYHRLPLS | 0.66 0.49 0.28 0.41 0.48 0.63 | 2 of 18 (2.29) |
| MISDLTQYGSRNVHSVA | DLSTRGS | QQYHRLPLS | 0.42 -0.08 0.10 -0.09 0.04 0.10 | 0 of 18 |
| KISQVTEYESRNKNNVA | DLTTRGS | QDYHRLPLS | -0.14 -0.05 -0.38 -0.29 -0.24 0.03 | 0 of 18 |
| MISQSFLYGSRAYNSVA | QTSTRES | QQYDRLPLS | 0.77 0.18 1.53 0.72 0.05 1.33 | 0 of 18 |
| KLSMMYQHTSRNKNNIA | ERSTRES | QQYHHLPLS | 2.10 1.87 1.40 2.31 1.43 1.69 | 1 of 18 (2.37) |
| KLLQVTENMQLNRNSVA | HMSTRED | QQYHHLPLS | 0.25 0.58 0.31 0.52 0.55 0.24 | 1 of 18 (1.46) |
| KLLQTVMNETRQRNNVA | HMTTRED | QQYHRLPLS | 3.02 2.36 2.44 n.d. 3.00 2.49 | 2 of 18 (2.78) |
| KLYMSTGYESRNADSIA | DNSTRGR | QQYHRLPLS | 1.57 1.37 1.18 1.53 1.02 1.21 | 1 of 18 (2.19) |
| KLLQTVQYGSRALNSVA | QMETRED | QQYHRLPLS | 0.19 0.11 0.05 0.37 0.25 0.20 | 0 of 18 |
| KLPMATMQESVSKNNVA | ELSTRGS | QQYHRLPLS | n.d. n.d. 2.92 n.d. n.d. 2.15 | 0 of 18 |
| KLSQVTHSELKVKNSIA | EMVTREK | QQYDRLPLS | 0.60 0.68 0.36 0.47 0.44 0.56 | 1 of 18 (1.93) |
| KLSVMQSYLSVNKNSVA | EMTTREN | QQYDRLPLS | 0.96 0.81 0.73 0.53 1.07 0.30 | 0 of 18 |
| MISALTMYGSRNKNSVA | DLSTRGS | QQYHRLPLS | 0.44 0.63 0.23 0.58 0.47 0.37 | 0 of 18 |
| QLGAVQDMTSKNRNSVA | EQSTREN | QQYHRLPLS | 0.65 0.41 0.05 0.39 0.61 0.24 | 0 of 18 |
| KFGMSVLMGSYVRNSVA | QQSTREN | QQYDRLPLS | 1.51 1.09 0.95 1.02 1.22 1.26 | 0 of 18 |
| HISQMWFLESKNKNNVA | EESTRGD | QSYFRLPLS | 0.06 0.00 -0.20 -0.83 -0.40 0.23 | 0 of 18 |
| TLSGLMDMTSRNVNSVA | DLTTRGN | QQYHRLPLS | 1.42 1.61 0.95 1.88 1.32 0.73 | 0 of 18 |
| KLSISMLHESINKHSVA | EVRTREN | QQYDRLPLS | n.d. n.d. n.d. n.d. n.d. n.d. | 0 of 18 |
| KITQLVMETSKSKNNVA | EVSTVPD | QQYHRLPLS | 1.34 1.15 1.01 1.22 1.40 1.66 | 1 of 18 (1.96) |
| KMLQNVMTEGRNRNNVA | HMDMRED | QQYWRLPLS | 0.68 0.69 0.16 -0.02 0.29 0.48 | 0 of 18 |
| NISESMYFQTRMKNNIA | EMSTRER | QHYHRLPLS | 1.33 1.92 1.75 1.54 1.82 1.28 | 2 of 18 (4.08) |
| MLLQATMYGERNRNSVA | HASTRND | QQYHRLPLI | n.d. 0.38 n.d. -0.06 0.30 n.d. | 0 of 18 |
| TIAESMLYLSNLKNSIA | QAETRES | QQYHRLPIS | 0.69 0.70 0.43 0.69 0.66 0.67 | 0 of 18 |
| MISDLTMYGSRNKNNVA | DLSTRGS | QQYHRLPLS | -0.38 -0.47 -0.48 -0.62 -0.59 -0.41 | 4 of 18 (3.04) |
| MISQLFMYGSRNWNSVA | QASTRES | QQYDRLPLI | 1.68 n.d. 0.39 0.89 0.65 n.d. | 0 of 18 |
| HISYSMAHLSKNHNSVA | NQQTRES | QQYHRLPLS | 0.66 1.26 0.95 0.75 0.98 0.83 | 0 of 18 |
| KVSDMMAFLSRNRNSIA | DNSTRGS | QQYHRLPLS | 0.50 0.20 -0.52 -0.65 -0.48 -0.42 | 0 of 18 |
| KLAQVTHSEHKNKNSIA | EMVTREK | QQYDRLPLS | 2.45 1.77 1.72 1.32 2.46 3.58 | 2 of 18 (2.35) |
| KISYMGEFFSTNHSSIA | QASTREQ | QQYHRLPLS | n.d. 1.00 0.96 1.93 1.37 1.60 | 0 of 18 |
| SIYDATGMESRNKNPIA | DVSTRPD | QQYHRLPLS | -0.02 -0.11 -0.14 -0.26 -0.11 -0.03 | 1 of 18 (4.29) |
| MISDLTMYGSTNKNSVA | DLSTRGS | QQYHRLPLS | -0.11 -0.27 -0.38 -0.52 -0.49 -0.30 | 1 of 18 (3.91) |
| TLMQVGGYEMNAHNSIA | DLRTREE | QQYHRLPLS | 0.59 1.09 1.15 0.92 0.52 0.49 | 0 of 18 |
| HISMMVGTKGYNKNSVA | NAETRQD | QQYHRLPLS | 1.60 2.16 1.23 2.23 2.03 2.11 | 1 of 18 (2.24) |

Repeated from above, the 4 best binders with a signal in all replicates:

{"CDR-L1": "MISDLTMYGSRNKNNVA", "CDR-L2": "DLSTRGS", "CDR-L3": "QQYHRLPLS", "log10 Kd, replicates": "-0.38 -0.47 -0.48 -0.62 -0.59 -0.41", "signal with controls": "4 of 18 (3.04)"}
{"CDR-L1": "MISDLTMYGSTNKNSVA", "CDR-L2": "DLSTRGS", "CDR-L3": "QQYHRLPLS", "log10 Kd, replicates": "-0.11 -0.27 -0.38 -0.52 -0.49 -0.30", "signal with controls": "1 of 18 (3.91)"}
{"CDR-L1": "KVSDMMAFLSRNRNSIA", "CDR-L2": "DNSTRGS", "CDR-L3": "QQYHRLPLS", "log10 Kd, replicates": "0.50 0.20 -0.52 -0.65 -0.48 -0.42", "signal with controls": "0 of 18"}
{"CDR-L1": "HISQMWFLESKNKNNVA", "CDR-L2": "EESTRGD", "CDR-L3": "QSYFRLPLS", "log10 Kd, replicates": "0.06 0.00 -0.20 -0.83 -0.40 0.23", "signal with controls": "0 of 18"}

Empty control strains, which show no peptide, gave a signal in 4% of pairings with all light chain designs; the median was 2.64 and 95% of these signals were weaker than 1.59. No background was subtracted. For each scFv, signals with the empty controls are counted beside the result, with their mean in brackets.
The range of this assay differs from that of the first round, and the authors advise against merging the two.
In the paper, a design with two or fewer of six values counts as a poor binder.